The numbers were not newly measured in US20170071990A1 (published 2017), which cites them from elsewhere.

For data set [1] the following is noted: in vivo; cited from earlier work.
For data set [2] the following is noted: in vitro and in vivo studies; cited from earlier work.

With `OB(O)O` [boric acid], in data set [1], the “concentrations of boric acid considered safe” value is “up to 5%”. The “mutagenic or teratogenic properties” value in data set [2] is “no mutagenic or teratogenic properties were observed”.
